Source: ChEMBL document CHEMBL1154101, “Purinergic P2X(7) receptor antagonists: Chemistry and fundamentals of biological screening” (Bioorg Med Chem, 2009)

Sequences of proteins named here, by UniProt entry; tags and fusion partners are left off. A change or cut given only in a name is not applied to a line headed by its entry.
UniProt Q99572: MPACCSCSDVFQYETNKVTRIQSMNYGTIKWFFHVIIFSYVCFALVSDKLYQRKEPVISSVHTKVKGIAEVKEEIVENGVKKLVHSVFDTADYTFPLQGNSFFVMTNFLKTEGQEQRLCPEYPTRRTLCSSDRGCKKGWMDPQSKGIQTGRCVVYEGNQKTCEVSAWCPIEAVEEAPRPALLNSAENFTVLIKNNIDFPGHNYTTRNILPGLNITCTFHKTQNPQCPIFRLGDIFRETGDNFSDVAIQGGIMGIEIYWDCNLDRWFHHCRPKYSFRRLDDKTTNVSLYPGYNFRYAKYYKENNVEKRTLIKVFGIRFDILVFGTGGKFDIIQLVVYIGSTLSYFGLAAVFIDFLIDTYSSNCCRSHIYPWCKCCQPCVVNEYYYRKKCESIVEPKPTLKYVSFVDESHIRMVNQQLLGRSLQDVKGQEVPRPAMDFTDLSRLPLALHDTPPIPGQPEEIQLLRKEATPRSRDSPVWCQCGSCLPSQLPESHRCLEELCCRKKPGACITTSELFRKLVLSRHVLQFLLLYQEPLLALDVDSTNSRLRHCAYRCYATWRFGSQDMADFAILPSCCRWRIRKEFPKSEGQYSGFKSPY

How the values were obtained:
P2X purinoceptor 7 [1] = target: P2X purinoceptor 7 (Homo sapiens, UniProt Q99572); assay: Binding affinity at human P2X7 receptor
P2X purinoceptor 7 [2] = target: T1, P2X purinoceptor 7 (Mus musculus, UniProt Q9Z1M0); assay: Binding affinity at mouse P2X7 receptor
T1 sequence (Q9Z1M0 whole entry): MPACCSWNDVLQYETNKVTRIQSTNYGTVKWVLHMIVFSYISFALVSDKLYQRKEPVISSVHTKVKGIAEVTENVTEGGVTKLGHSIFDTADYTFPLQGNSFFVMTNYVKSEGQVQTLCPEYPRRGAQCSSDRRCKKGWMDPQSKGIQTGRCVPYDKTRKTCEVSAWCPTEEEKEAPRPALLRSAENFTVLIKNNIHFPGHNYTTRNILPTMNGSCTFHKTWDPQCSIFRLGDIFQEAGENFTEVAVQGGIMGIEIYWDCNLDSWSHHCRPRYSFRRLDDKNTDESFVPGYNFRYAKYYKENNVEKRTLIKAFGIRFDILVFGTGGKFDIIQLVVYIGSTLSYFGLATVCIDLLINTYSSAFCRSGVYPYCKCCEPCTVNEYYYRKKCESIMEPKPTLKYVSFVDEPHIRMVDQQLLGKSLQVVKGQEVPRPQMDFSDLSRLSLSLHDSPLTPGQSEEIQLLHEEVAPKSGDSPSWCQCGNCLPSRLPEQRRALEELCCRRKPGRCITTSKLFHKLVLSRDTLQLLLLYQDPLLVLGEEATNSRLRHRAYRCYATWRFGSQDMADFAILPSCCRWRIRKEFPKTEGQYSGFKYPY

[3H]c1ccc([C@H](C)N/C(=N/C#N)Nc2cccc3ncccc23)cc1
IC50 (P2X purinoceptor 7 [1]): 10 nM | IC50 (P2X purinoceptor 7 [2]): 10 nM
